Test results from patent US10683267B1, “Antidiabetic compounds” (King Abdulaziz University, priority 2019, dated 2020).

Protein sequences, listed by entry. Tags and fused reporters are not part of them.
UniProt P27487, whole entry: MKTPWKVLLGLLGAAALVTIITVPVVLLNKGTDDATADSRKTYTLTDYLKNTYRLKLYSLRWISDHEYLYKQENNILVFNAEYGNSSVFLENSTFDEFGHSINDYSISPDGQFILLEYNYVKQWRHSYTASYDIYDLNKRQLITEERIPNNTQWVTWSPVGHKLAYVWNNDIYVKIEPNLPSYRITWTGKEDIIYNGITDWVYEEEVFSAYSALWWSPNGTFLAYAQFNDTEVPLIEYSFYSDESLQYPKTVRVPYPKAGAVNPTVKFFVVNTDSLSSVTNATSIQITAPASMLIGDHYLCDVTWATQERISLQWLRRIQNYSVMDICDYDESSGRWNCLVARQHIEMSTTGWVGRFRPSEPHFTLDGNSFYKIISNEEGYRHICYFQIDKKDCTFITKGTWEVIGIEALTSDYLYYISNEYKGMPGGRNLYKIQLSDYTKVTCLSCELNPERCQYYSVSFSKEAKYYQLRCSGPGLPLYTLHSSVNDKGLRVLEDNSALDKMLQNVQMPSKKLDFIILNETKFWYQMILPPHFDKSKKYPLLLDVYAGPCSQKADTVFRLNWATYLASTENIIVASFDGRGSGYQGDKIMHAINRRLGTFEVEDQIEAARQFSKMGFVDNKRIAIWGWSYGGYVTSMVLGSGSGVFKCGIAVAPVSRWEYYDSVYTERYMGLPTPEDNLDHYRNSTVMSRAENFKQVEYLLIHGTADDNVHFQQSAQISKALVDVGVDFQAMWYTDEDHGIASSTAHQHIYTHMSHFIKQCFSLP

What was measured:
DPP-IV enzyme = DPP-IV enzyme (Homo sapiens, UniProt P27487); assay: In vitro DPP-IV inhibition assay (Biovision kit, fluorescence); format: biochemical
diabetic mice [1] = assay: Oral glucose tolerance test (OGTT) after single dose in diabetic mice; format: in vivo; conditions: Table 6, relative potency, B.G. = blood glucose
diabetic mice [2] = assay: Oral glucose tolerance test (OGTT) after multiple doses (6 days) in diabetic mice; format: in vivo; conditions: Table 6, relative potency, B.G. = blood glucose

IC50 (DPP-IV enzyme; Table 2, head prints no unit, nM per Table 6): 5.88 nM
IC50 (DPP-IV enzyme; Table 6): 5.88 nM
% Inhibition @ 100 nM (DPP-IV enzyme; compound at 100 nM): 79.97%
IC50 (DPP-IV enzyme; read-out: enzymatic inhibition value / inhibitory activity (IC50) as stated in text): 5.9 nM
SMILES: O=C(CNC12CC3CC(CC(O)(C3)C1)C2)Nc1ccccc1
R.P. to Vildagliptin (Single Dose) (diabetic mice [1]): Increased B.G.
R.P. to Vildagliptin (6 Days) (diabetic mice [2]): Increased B.G.

Like-named read-outs stand apart in the source and are kept apart here.
